Source: patent US9694016B2 (Novartis AG, priority 2013, dated 2017)

The chains behind the UniProt entries cited, without tags or fusion partners.
UniProt P04049, whole entry Y340E/Y341E: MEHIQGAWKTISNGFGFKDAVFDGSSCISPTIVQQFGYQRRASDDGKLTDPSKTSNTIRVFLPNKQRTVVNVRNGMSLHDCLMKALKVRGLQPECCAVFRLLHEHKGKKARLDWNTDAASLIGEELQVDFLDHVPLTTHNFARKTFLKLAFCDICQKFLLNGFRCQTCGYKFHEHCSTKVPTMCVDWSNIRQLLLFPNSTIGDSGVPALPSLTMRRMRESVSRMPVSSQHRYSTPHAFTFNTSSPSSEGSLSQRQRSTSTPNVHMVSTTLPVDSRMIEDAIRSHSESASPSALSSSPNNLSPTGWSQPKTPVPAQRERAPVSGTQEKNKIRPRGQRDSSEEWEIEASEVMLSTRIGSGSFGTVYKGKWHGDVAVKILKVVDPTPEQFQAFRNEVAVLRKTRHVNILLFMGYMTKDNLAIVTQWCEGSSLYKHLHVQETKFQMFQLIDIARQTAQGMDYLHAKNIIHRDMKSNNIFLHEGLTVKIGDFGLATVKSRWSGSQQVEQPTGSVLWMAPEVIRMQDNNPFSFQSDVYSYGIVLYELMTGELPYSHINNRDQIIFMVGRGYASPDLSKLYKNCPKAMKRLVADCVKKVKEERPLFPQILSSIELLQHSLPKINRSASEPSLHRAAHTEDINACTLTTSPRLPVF

Target: C-Raf FL (full-length C-Raf protein, Y340E and Y341E activating mutations) (Homo sapiens (Human), UniProt P04049, Y340E/Y341E)
Format: biochemical
Details: Table 2; AlphaScreen, 1 hour reaction; read-out: c-Raf FL IC-50

## CCOc1ncc(-c2cc(NC(=O)c3cnnc(C(C)(C)C#N)c3)ccc2C)cc1N1CCOCC1 [Example 284, 6-(2-cyanopropan-2-yl)-N-(3-(6-ethoxy-5-morpholinopyridin-3-yl)-4-methylphenyl)pyridazine-4-carboxamide]
  IC50: 0.4 nM

## CCOc1ncc(-c2cc(NC(=O)c3cnnc(C(F)(F)F)c3)cnc2C)cc1N1CCOC[C@H]1C [Example 285]
  IC50: 51.9 nM

## CCOc1ncc(-c2cc(NC(=O)c3cnnc(C(F)(F)F)c3)cnc2C)cc1N1CCOC[C@@H]1C [Example 286, (S)—N-(6′-ethoxy-2-methyl-5′-(3-methylmorpholino)-[3,3′-bipyridin]-5-yl)-6-(trifluoromethyl)pyridazine-4-carboxamide]
  IC50: 51.9 nM

## CCOc1ncc(-c2cc(NC(=O)c3cnnc(C(C)(C)C#N)c3)cnc2C)cc1N1CCOCC1 [Example 287, 6-(2-cyanopropan-2-yl)-N-(6′-ethoxy-2-methyl-5′-morpholino-[3,3′-bipyridin]-5-yl)pyridazine-4-carboxamide]
  IC50: 4 nM

## Cc1ncc(NC(=O)c2ccnc(C3(C#N)CC3)c2)cc1-c1cnc(Cl)c(N2CCOCC2)c1 [Example 288, N-(6′-chloro-2-methyl-5-morpholino-[3,3′-bipyridin]-5-yl)-2-(1-cyanocyclopropyl)isonicotinamide]
  IC50: 1.2 nM

## Cc1ncc(NC(=O)c2ccnc(C(C)(C)C#N)c2)cc1-c1cnc(Cl)c(N2CCOCC2)c1 [Example 289, N-(6′-chloro-2-methyl-5′-morpholino-[3,3-bipyridin]-5-yl)-2-(2-cyanopropan-2-yl)isonicotinamide]
  IC50: 3.8 nM

## Cc1ncc(NC(=O)c2ccnc(C(C)(C)F)c2)cc1-c1cnc(Cl)c(N2CCOCC2)c1 [Example 290, N-(6′-chloro-2-methyl-5′-morpholino-[3,3-bipyridin]-5-yl)-2-(2-fluoropropan-2-yl)isonicotinamide]
  IC50: 1.4 nM

## Cc1ncc(NC(=O)c2cnnc(C(F)(F)F)c2)cc1-c1cnc(Cl)c(N2CCOCC2)c1 [Example 292, N-(6′-chloro-2-methyl-5′-morpholino-[3,3′-bipyridin]-5-yl)-6-(trifluoromethyl)pyridazine-4-carboxamide]
  IC50: 1.4 nM

## Cc1ncc(NC(=O)c2cnnc(C(C)(C)C#N)c2)cc1-c1cnc(Cl)c(N2CCOCC2)c1 [Example 293, N-(6′-chloro-2-methyl-5′-morpholino-[3,3′-bipyridin]-5-yl)-6-(2-cyanopropan-2-yl)pyridazine-4-carboxamide]
  IC50: 6.6 nM

## Cc1ncc(NC(=O)c2ccnc(C(C)(C)F)c2)cc1-c1cncc(N2CCOCC2)c1 [Example 294, 2-(2-fluoropropan-2-yl)-N-(2-methyl-5′-morpholino-[3,3′-bipyridin]-5-yl)isonicotinamide]
  IC50: 2.7 nM

## Cc1ncc(NC(=O)c2ccnc(C(F)(F)F)c2)cc1-c1cncc(N2CCOCC2)c1 [Example 295]
  IC50: 0.6 nM

## Cc1ncc(NC(=O)c2cnnc(C(C)(C)C#N)c2)cc1-c1cncc(N2CCOCC2)c1 [Example 296, 6-(2-cyanopropan-2-yl)-N-(2-methyl-5′-morpholino-[3,3′-bipyridin]-5-yl)pyridazine-4-carboxamide]
  IC50: 4.9 nM

## Cc1ncc(NC(=O)c2ccnc(C(C)(C)C#N)c2)cc1-c1cncc(N2CCOCC2)c1 [Example 297, 2-(2-cyanopropan-2-yl)-N-(2-methyl-5′-morpholino-[3,3′-bipyridin]-5-yl)isonicotinamide]
  IC50: 3.6 nM

## Cc1ncc(NC(=O)c2ccnc(C(C)(C)F)c2)cc1-c1cnc(F)c(N2CCOCC2)c1 [Example 298, N-(6′-fluoro-2-methyl-5′-morpholino-[3,3′-bipyridin]-5-yl)-2-(2-fluoropropan-2-yl)isonicotinamide]
  IC50: 1.9 nM

## Cc1ncc(NC(=O)c2ccnc(C(C)(C)F)c2)cc1-c1cnc(OCCO)c(N2CCOCC2)c1 [Example 299, 2-(2-fluoropropan-2-yl)-N-(6′-(2-hydroxyethoxy)-2-methyl-5′-morpholino-[3,3′-bipyridin]-5-yl)isonicotinamide]
  IC50: 2.7 nM

## Cc1ncc(NC(=O)c2ccnc(C(C)(C)C#N)c2)cc1-c1cnc(OCCO)c(N2CCOCC2)c1 [Example 300, 2-(2-cyanopropan-2-yl)-N-(6′-(2-hydroxyethoxy)-2-methyl-5′-morpholino-[3,3′-bipyridin]-5-yl)isonicotinamide]
  IC50: 4.7 nM

## Cc1ncc(NC(=O)c2cc(C(F)(F)F)ccn2)cc1-c1cnc(OCCO)c(N2CCOCC2)c1 [Example 301, N-(6′-(2-hydroxyethoxy)-2-methyl-5′-morpholino-[3,3′-bipyridin]-5-yl)-4-(trifluoromethyl)picolinamide]
  IC50: 0.9 nM

## Cc1ccc(NC(=O)c2cnnc(C3(C#N)CC3)c2)cc1-c1cnc(OC2CCOCC2)c(N2CCOCC2)c1 [Example 302, 6-(1-cyanocyclopropyl)-N-(4-methyl-3-(5-morpholino-6-((tetrahydro-2H-pyran-4-yl)oxy)pyridin-3-yl)phenyl)pyridazine-4-carboxamide]
  IC50: 0.2 nM

## CCOc1ncc(-c2cc(NC(=O)c3cnnc(C(C)(C)C#N)c3)cnc2C)cc1N1CCOC[C@H]1C [Example 303, (R)-6-(2-cyanopropan-2-yl)-N-(6′-ethoxy-2-methyl-5′-(3-methylmorpholino)-[3,3′-bipyridin]-5-yl)pyridazine-4-carboxamide]
  IC50: 14.4 nM

## CCOc1ncc(-c2cc(NC(=O)c3cnnc(C(C)(C)F)c3)ccc2C)cc1N1CCOCC1 [Example 304, N-(3-(6-ethoxy-5-morpholinopyridin-3-yl)-4-methylphenyl)-6-(2-fluoropropan-2-yl)pyridazine-4-carboxamide]
  IC50: 0.3 nM

## CCOc1ncc(-c2cc(C(=O)Nc3ccnc(C(F)(F)F)c3)ccc2C)cc1N1CCOCC1 [Example 306, 3-(6-ethoxy-5-morpholinopyridin-3-yl)-4-methyl-N-(2-(trifluoromethyl)pyridin-4-yl)benzamide]
  IC50: 0.6 nM

## Cc1ncc(NC(=O)c2cccc(C(F)(F)F)c2)cc1-c1cnc(N(C)C)c(N2CCOCC2)c1 [Example 307, N-(6′-(dimethylamino)-2-methyl-5′-morpholino-[3,3′-bipyridin]-5-yl)-3-(trifluoromethyl)benzamide]
  IC50: 0.1 nM

## Cc1ncc(NC(=O)c2ccnc(C(C)C)c2)cc1-c1cnc(N(C)C)c(N2CCOCC2)c1 [Example 308, N-(6′-(dimethylamino)-2-methyl-5′-morpholino-[3,3′-bipyridin]-5-yl)-2-isopropylisonicotinamide]
  IC50: 0.2 nM

## Cc1ncc(NC(=O)c2cccc(C(F)(F)F)c2)cc1-c1cnc(OC2CCOCC2)c(N2CCOCC2=O)c1 [Example 309, N-(2-methyl-5′-(3-oxomorpholino)-6′-((tetrahydro-2H-pyran-4-yl)oxy)-[3,3′-bipyridin]-5-yl)-3-(trifluoromethyl)benzamide]
  IC50: 4.6 nM

## Cc1ncc(NC(=O)c2cccc(C(F)(F)F)c2)cc1-c1cnc(O[C@H]2CCOC2)c(N2CCOCC2)c1 [Example 310, (S)—N-(2-methyl-5′-morpholino-6′-((tetrahydrofuran-3-yl)oxy)-[3,3′-bipyridin]-5-yl)-3-(trifluoromethyl)benzamide]
  IC50: 0.7 nM

## Cc1ncc(NC(=O)c2cccc(C(F)(F)F)c2)cc1-c1cnc(O[C@@H]2CCOC2)c(N2CCOCC2)c1 [Example 311, (R)—N-(2-methyl-5′-morpholino-6′-((tetrahydrofuran-3-yl)oxy)-[3,3′-bipyridin]-5-yl)-3-(trifluoromethyl)benzamide]
  IC50: 0.9 nM

## COCCOc1ncc(-c2cc(NC(=O)c3cccc(C(F)(F)F)c3)cnc2C)cc1N1CCOCC1 [Example 312, N-(6′-(2-methoxyethoxy)-2-methyl-5′-morpholino-[3,3′-bipyridin]-5-yl)-3-(trifluoromethyl)benzamide]
  IC50: 1.1 nM

## Cc1ncc(NC(=O)c2ccnc(C(C)C)c2)cc1-c1cnc(OC2CCOCC2)c(N2CCOCC2)c1 [Example 313, 2-isopropyl-N-(2-methyl-5′-morpholino-6′-((tetrahydro-2H-pyran-4-yl)oxy)-[3,3′-bipyridin]-5-yl)isonicotinamide]
  IC50: 1.7 nM

## Cc1ncc(NC(=O)c2ccnc(C(F)(F)F)c2)cc1-c1cnc(OC2CCOCC2)c(N2CCOCC2)c1 [Example 314, N-(2-methyl-5′-morpholino-6′-((tetrahydro-2H-pyran-4-yl)oxy)-[3,3′-bipyridin]-5-yl)-2-(trifluoromethyl)isonicotinamide]
  IC50: 1.6 nM

## Cc1ncc(NC(=O)c2cccc(C(F)(F)F)c2)cc1-c1cnc(OC2COC2)c(N2CCOCC2)c1 [Example 315]
  IC50: 0.3 nM

## Cc1ncc(NC(=O)c2cccc(C(F)(F)F)c2)cc1-c1cnc(O[C@H]2CC[C@H](O)CC2)c(N2CCOCC2)c1 [Example 316, N-(6′-(((1r,4r)-4-hydroxycyclohexyl)oxy)-2-methyl-5′-morpholino-[3,3′-bipyridin]-5-yl)-3-(trifluoromethyl)benzamide]
  IC50: 0.8 nM

## Cc1ncc(NC(=O)c2cccc(C(F)(F)F)c2)cc1-c1cnc(O[C@H]2CC[C@@H](O)CC2)c(N2CCOCC2)c1 [Example 317, N-(6′-(((1s,4s)-4-hydroxycyclohexyl)oxy)-2-methyl-5′-morpholino-[3,3′-bipyridin]-5-yl)-3-(trifluoromethyl)benzamide]
  IC50: 0.5 nM

## Cc1ncc(NC(=O)c2cccc(C(F)(F)F)c2)cc1-c1cnc(OC2CN(C)C2)c(N2CCOCC2)c1 [Example 321, N-(2-methyl-6′-((1-methylazetidin-3-yl)oxy)-5′-morpholino-[3,3′-bipyridin]-5-yl)-3-(trifluoromethyl)benzamide]
  IC50: 8.5 nM

## Cc1ncc(NC(=O)c2cccc(C(F)(F)F)c2)cc1-c1cnc(OC2CC3(COC3)C2)c(N2CCOCC2)c1 [Example 322, N-(6′-(2-oxaspiro[3.3]heptan-6-yloxy)-2-methyl-5′-morpholino-[3,3′-bipyridin]-5-yl)-3-(trifluoromethyl)benzamide]
  IC50: 0.5 nM

## COc1ncc(-c2cc(NC(=O)c3ccnc(C(C)C)c3)cnc2C)cc1N1CCOCC1 [Example 323, 2-isopropyl-N-(6′-methoxy-2-methyl-5′-morpholino-[3,3′-bipyridin]-5-yl)isonicotinamide]
  IC50: 2.8 nM
